Measurements published in patent US12037372B2, “Bioactive peptides derived from snakes” (Universiteit Leiden, priority 2018, dated 2024).

Columns and labels:
human erythrocytes = assay: Hemolysis assay; type: cell-based; settings: for Hemolysis (μM) in 50% plasma: highest peptide concentration that resulted in <5% erythrocyte lysis, 1 hour, human plasma; for concentration still safe for erythrocytes: 50% v/v human plasma
normal human melanocytes = assay: Selective killing of melanoma cells (LDH release), normal cells; type: cell-based; settings: 51.2 μM; 4 hours
Experimental: Normal melanocytes (up to 4 passages) and 4 melanoma cell lines (mel 11.11, mel 12.13, mel 05.18, mel 09.03) were cultured overnight 37° C. at a concentration of 2×10^4 cells/well in 100 μl of DMEM supplemented with 7.5% (v/v) fetal calf serum in a humidified 5% CO2 atmosphere. The next day 75 μl of medium were removed and then 25 μl of double concentrated peptide (SP4 and SP27) solutions prepared in DMEM supplemented with 0.5% human serum were added. After an incubation for 4 hours in a humidified 5% CO2 atmosphere at 37° C. the supernatant was removed for measurement of the LDH release using the Roche kit. The background LDH release by the cells, determined by exposing the cells to DMEM with 0.5% serum without peptide, was subtracted from the values for the peptide-exposed cells. Finally, the results ae expressed as the percentage LDH release using the values found for triton-exposed cells as 100%.

erythrocytes = settings: at 100 μg/ml; PBS alone; Cai et al., 2018; cited from earlier work
[1] = Table 5, highest concentration lysing less than 5% of human erythrocytes in human plasma within 1 hour
[2] = Table 6, highest concentration lysing less than 5% of human erythrocytes in human plasma within 1 hour

AREKSFLQKMKVILQLSSQDQIQAF [SP20]
Hemolysis (μM) in 50% plasma (human erythrocytes): 204.8 µM

DQVERGNFAKDGSKARVKKSLTKWVKFLKKIIAKLGRPLIGF [SP22]
Hemolysis (μM) in 50% plasma (human erythrocytes): 102.4 µM

FFRKVKKGVHRYFKKNKFYIAATI [SP27-68]
Toxicity (human erythrocytes; [1]): 204.8 µM

FKKFFRKVKKGVHRYFKKNKFYIA [SP27-65]
Toxicity (human erythrocytes; [1]): 204.8 µM

FRKVKKGVHRYFKKNKFYIAATIP [SP27-69]
Toxicity (human erythrocytes; [1]): 409.6 µM

KFFRKVKKGVHRYFKKNKFYIAAT [SP27-67]
Toxicity (human erythrocytes; [1]): ≥409.6 µM

KKFFRKVKKGVHRYFKKNKFYIAA [SP27-66]
Toxicity (human erythrocytes; [1]): ≥409.6 µM

KRFKKFFRKVKKGVHRYFKKNKFY [SP27-63]
Toxicity (human erythrocytes; [1]): ≥409.6 µM
Toxicity (human erythrocytes; [2]): ≥409.6 µM

KVKKGVHRYFKKNKFYIAATIPYY [SP27-71]
Toxicity (human erythrocytes; [1]): 204.8 µM

KRFAGFFQFVIGVSFHF [SP21]
Hemolysis (μM) in 50% plasma (human erythrocytes): 204.8 µM

KRFAGFFQFVVGVSFRF [SP33]
Hemolysis (μM) in 50% plasma (human erythrocytes): 204.8 µM

KRFKDFFHRIRDGVRDFFRNNHFVCGVNFRF [SP17]
Hemolysis (μM) in 50% plasma (human erythrocytes): 51.2 µM

KRFKKFFKKAKKSVKKRLKKFFNKTRVIGVSIPF [SP14]
Hemolysis (μM) in 50% plasma (human erythrocytes): 204.8 µM

KRFKKFFKKIKNGIKTFIKKTQMAIGSHFRW [SP30]
Hemolysis (μM) in 50% plasma (human erythrocytes): 204.8 µM

KRFKKFFKKIKNSVKKRVKKFFKKPRVIGVSIPF [SP23]
Hemolysis (μM) in 50% plasma (human erythrocytes): 204.8 µM

KRFKKFFKKIKTGIKKVIKKTKQAIASHFRW [SP18]
Hemolysis (μM) in 50% plasma (human erythrocytes): 204.8 µM

KRFKKFFKKLKNNVKKRVKKFFRKPRVIGVTIPF [SP4]
hemolysis (human erythrocytes; at 851 μg/ml): < 5%
Hemolysis (μM) in 50% plasma (human erythrocytes): 204.8 µM
viability of normal melanocytes (LDH release) (normal human melanocytes): did not affect the viability

KRFKKFFKKLKNSVKKRVKKFFRKPRVIGVTFPF [SP3]
Hemolysis (μM) in 50% plasma (human erythrocytes): 204.8 µM

KRFKKFFKKLKNSVRKCAKKFFKKLRVIRVSIPF [SP24]
Hemolysis (μM) in 50% plasma (human erythrocytes): 102.4 µM

KRFKKFFKKVKKSVKKRLKKIFKKPIVIGVSIPF [SP25]
Hemolysis (μM) in 50% plasma (human erythrocytes): 102.4 µM

KRFKKFFKKVKKSVKKRLKKIFKKPMVIGVSIPF [SP7]
Hemolysis (μM) in 50% plasma (human erythrocytes): 204.8 µM

KRFKKFFKKVKKSVKKRLKKIFKKPMVIGVTFPF [SP9]
Hemolysis (μM) in 50% plasma (human erythrocytes): 204.8 µM

KRFKKFFKKVKKSVKKRLKKIFKKPMVIGVTIPF [SP6]
Hemolysis (μM) in 50% plasma (human erythrocytes): 204.8 µM

KRFKKFFMKLKKSVKKRVMKFFKKPMVIGVTFPF [SP12]
Hemolysis (μM) in 50% plasma (human erythrocytes): 51.2 µM

KRFKKFFRKIKKGFRKIFKKTKIFIGGTIPI [SP15]
concentration still safe for erythrocytes (human erythrocytes): around 800 μg/ml
Hemolysis (μM) in 50% plasma (human erythrocytes): 204.8 µM
hemolysis (erythrocytes): 6.63%

KRFKKFFRKLKKSVKKRAKEFFKKPRVIGVSIPF [SP5]
Hemolysis (μM) in 50% plasma (human erythrocytes): 204.8 µM

KRFKKFFRKLKKSVKKRVKKFFKKPRVIGVTIPF [SP11]
Hemolysis (μM) in 50% plasma (human erythrocytes): 204.8 µM

KRFKKFFRKVKKGVHRYFKKNKFYIAATIPYYG [SP27]
Toxicity (human erythrocytes; [1]): 102.4 µM
Toxicity (human erythrocytes; [2]): 102.4 µM
Toxicity (human erythrocytes; highest concentration of the peptide that lyses less than 5% of the human erythrocytes in human plasma within 1 hour): 102.4 µM
Toxicity (human erythrocytes; highest concentration that lyses less than 5% of the human erythrocytes in human plasma within 1 hour): 102.4 µM
Hemolysis (μM) in 50% plasma (human erythrocytes): 102.4 µM
viability of normal melanocytes (LDH release) (normal human melanocytes): did not affect the viability

KRFKKFLKKLKKSVKKHVKEFFKKPRVIGV [SP35]
Hemolysis (μM) in 50% plasma (human erythrocytes): 204.8 µM

KRFKNFFKKIRDGIHEFIHNNRFVIGVNFRF [SP29]
Hemolysis (μM) in 50% plasma (human erythrocytes): 102.4 µM

KRFKNFFKRVRDGIRDFFRKNHIVIGVNFRF [SP31]
Hemolysis (μM) in 50% plasma (human erythrocytes): 102.4 µM

KRFLRLVVFKKLKKGLRKLFKKKKIVTGHVTS [SP28]
Hemolysis (μM) in 50% plasma (human erythrocytes): 204.8 µM

KRFLRVFKKLKRGIRKLFKKKKIVTGPLTS [SP19]
Hemolysis (μM) in 50% plasma (human erythrocytes): 204.8 µM

KRFLRVFRKLKKGLKKLFKRKKVVTGYVTA [SP32]
Hemolysis (μM) in 50% plasma (human erythrocytes): 102.4 µM

KRFQNFFRELEKKFREFFRVYRITIGATIRF [SP16]
concentration still safe for erythrocytes (human erythrocytes): around 800 μg/ml
Hemolysis (μM) in 50% plasma (human erythrocytes): 204.8 µM
hemolysis (erythrocytes): 9.14%

KRFRKFFKRLLKSVRRAVKKFRKKPRLIGLSTLL [SP8]
Hemolysis (μM) in 50% plasma (human erythrocytes): 102.4 µM

KRFTFYKKVKKNVENLLNKFFKKLRVIGDSIPF [SP26]
Hemolysis (μM) in 50% plasma (human erythrocytes): 102.4 µM

KRFVGSFQLVVGVSFRF [SP34]
Hemolysis (μM) in 50% plasma (human erythrocytes): 204.8 µM

KRVKRFKKFFKKVKKSVKKRLKKIFKKPMVIGVTIPF [SP2]
Hemolysis (μM) in 50% plasma (human erythrocytes): 204.8 µM

RFKKFFRKVKKGVHRYFKKNKFYI [SP27-64]
Toxicity (human erythrocytes; [1]): 204.8 µM

RKVKKGVHRYFKKNKFYIAATIPY [SP27-70]
Toxicity (human erythrocytes; [1]): ≥408.6 µM

RKFKKSFKKIRKWVKKATKIAGEVAVEILITKVILGSVGL [SP1]
Hemolysis (μM) in 50% plasma (human erythrocytes): 51.2 µM

VKKGVHRYFKKNKFYIAATIPYYG [SP27-72]
Toxicity (human erythrocytes; [1]): 204.8 µM
